Source: ChEMBL document CHEMBL1147599 (Bioorg Med Chem Lett, 2004)
pIC50: −log10 of the molar value. Only a part of the results on these compounds is given; other tests are left out.

By UniProt entry, the sequences of proteins in these tests, tags left out.
UniProt P49146, whole entry: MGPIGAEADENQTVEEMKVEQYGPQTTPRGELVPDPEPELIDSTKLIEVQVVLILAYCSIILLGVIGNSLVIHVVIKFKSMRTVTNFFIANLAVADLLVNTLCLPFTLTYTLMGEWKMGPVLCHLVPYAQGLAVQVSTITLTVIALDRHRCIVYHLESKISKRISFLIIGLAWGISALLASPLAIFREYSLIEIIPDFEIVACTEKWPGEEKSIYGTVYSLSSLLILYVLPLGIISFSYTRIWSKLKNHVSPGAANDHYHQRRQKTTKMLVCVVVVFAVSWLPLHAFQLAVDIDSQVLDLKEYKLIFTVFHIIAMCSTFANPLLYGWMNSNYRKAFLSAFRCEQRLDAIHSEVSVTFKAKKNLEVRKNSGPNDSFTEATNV

Target: Neuropeptide Y receptor type 2 (Homo sapiens, UniProt P49146)
Assay: Binding affinity towards the NPY Y2 receptor

Row | Compound | pIC50
1 | CC(=O)N1CCc2ccc(N(C(=O)/C=C/C3N=CC=N3)C3CCN(Cc4ccccc4)CC3)cc21 | 4.77
2 | CC(=O)N1CCc2ccc(N(C(=O)C/C=C/c3ccccc3)C3CCN(Cc4ccccc4)CC3)cc21 | 4.96
